Experimental data from ChEMBL document CHEMBL1144712, “Structure-guided design of C2-symmetric HIV-1 protease inhibitors based on a pyrrolidine scaffold” (J Med Chem, 2008).

Target: Protease (Human immunodeficiency virus 1, UniProt Q9YQ12)
Assay: Inhibition of HIV1 recombinant protease expressed in Escherichia coli

Ki [nM]	SMILES
270	Nc1ccc(S(=O)(=O)N(Cc2ccccc2)[C@H]2CNC[C@@H]2N(Cc2ccccc2)S(=O)(=O)c2ccc(N)cc2)cc1
390	O=S(=O)(c1ccccc1)N(Cc1ccc(I)cc1)[C@H]1CNC[C@@H]1N(Cc1ccc(I)cc1)S(=O)(=O)c1ccccc1
